By UniProt entry, the sequences of proteins in these tests, tags left out.
UniProt P30547, whole entry: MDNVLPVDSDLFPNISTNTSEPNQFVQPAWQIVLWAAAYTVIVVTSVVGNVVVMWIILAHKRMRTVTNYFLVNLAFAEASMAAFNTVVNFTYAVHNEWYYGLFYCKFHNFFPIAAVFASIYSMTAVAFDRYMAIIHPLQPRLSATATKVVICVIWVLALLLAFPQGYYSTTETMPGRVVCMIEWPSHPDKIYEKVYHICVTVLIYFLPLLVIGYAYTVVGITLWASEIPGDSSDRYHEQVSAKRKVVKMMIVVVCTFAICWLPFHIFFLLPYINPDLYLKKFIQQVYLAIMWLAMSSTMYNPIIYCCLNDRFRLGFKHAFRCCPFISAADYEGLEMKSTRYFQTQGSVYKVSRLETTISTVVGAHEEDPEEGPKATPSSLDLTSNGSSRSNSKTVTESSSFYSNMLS
UniProt P31652, whole entry: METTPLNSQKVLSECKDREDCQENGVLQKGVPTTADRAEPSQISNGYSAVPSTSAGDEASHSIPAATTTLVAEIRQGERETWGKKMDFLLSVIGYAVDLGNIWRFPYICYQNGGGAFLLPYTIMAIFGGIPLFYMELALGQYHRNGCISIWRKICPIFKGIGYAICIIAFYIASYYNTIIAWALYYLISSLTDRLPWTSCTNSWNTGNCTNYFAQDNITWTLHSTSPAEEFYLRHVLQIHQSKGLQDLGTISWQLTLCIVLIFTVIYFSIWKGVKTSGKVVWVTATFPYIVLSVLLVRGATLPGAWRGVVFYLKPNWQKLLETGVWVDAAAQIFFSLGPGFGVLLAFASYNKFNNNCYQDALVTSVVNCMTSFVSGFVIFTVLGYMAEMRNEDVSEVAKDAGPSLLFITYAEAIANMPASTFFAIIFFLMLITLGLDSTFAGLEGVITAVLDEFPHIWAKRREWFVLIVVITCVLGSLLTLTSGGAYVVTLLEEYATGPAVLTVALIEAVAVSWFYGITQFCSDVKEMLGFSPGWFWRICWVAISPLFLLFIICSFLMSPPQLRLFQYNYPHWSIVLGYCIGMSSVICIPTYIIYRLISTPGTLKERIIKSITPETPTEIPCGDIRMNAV
UniProt P25103, whole entry: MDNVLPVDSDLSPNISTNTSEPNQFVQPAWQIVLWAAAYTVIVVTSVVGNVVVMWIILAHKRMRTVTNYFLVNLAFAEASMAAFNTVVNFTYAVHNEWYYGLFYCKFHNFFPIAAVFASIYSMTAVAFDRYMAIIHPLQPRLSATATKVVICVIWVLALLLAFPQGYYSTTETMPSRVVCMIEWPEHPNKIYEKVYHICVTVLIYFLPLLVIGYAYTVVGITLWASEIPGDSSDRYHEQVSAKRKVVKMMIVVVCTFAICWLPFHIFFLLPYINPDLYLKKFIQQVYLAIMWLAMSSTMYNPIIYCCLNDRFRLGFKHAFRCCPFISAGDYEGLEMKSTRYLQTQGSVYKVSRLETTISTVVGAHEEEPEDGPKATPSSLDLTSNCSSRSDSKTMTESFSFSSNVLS

According to ChEMBL document CHEMBL1135382, “First dual NK(1) antagonists-serotonin reuptake inhibitors: synthesis and SAR of a new class of potential antidepressants” (Bioorg Med Chem Lett, 2002):

Columns and labels:
[1] = biological target: Substance-P receptor (Cavia porcellus, UniProt P30547); assay: inhibiting substance P-induced contraction of the isolated guinea pig ileum
[2] = Lipophilicity; type: physicochemical
[3] = biological target: Sodium-dependent serotonin transporter (Rattus norvegicus, UniProt P31652); assay: Binding affinity at serotonin transporter from rat cerebral cortex by [3H]-paroxetine displacement.; type: tissue-based
Procedure, shortened: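 Rat cerebral cortex membranes (100–200 μg protein) were incubated 120 min at 25 °C in 50 mM Tris–HCl pH 7.4 with 2 mM MgCl2 and 0.05 nM radioligand. Nonspecific binding was defined with 5 μM imipramine.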

[4] = biological target: Substance-P receptor (Homo sapiens, UniProt P25103); assay: Binding affinity at human Tachykinin receptor 1 expressed in CHO cells by [3H]-substance P displacement.; type: cell-based
Procedure, shortened: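 Membranes (10–20 μg protein) from CHO cells expressing human NK1 receptor were incubated 60 min at 25 °C in 50 mM Tris–HCl pH 7.4 with 2 mM MgCl2, 100 μg/mL bacitracin and 0.25 nM [3H]substance P.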

Structure (SMILES) | pA2 [1] | Log K' IAM [2] | Log IC50 [3] | Log IC50 [4]
Cc1cc(C)cc(OCC(=O)N(c2ccc(Cl)c(Cl)c2)C2CCNCC2)c1 | 6.88 | 2.7 | -7.5 | -7.6
O=C(COc1cc(F)cc(F)c1)N(c1ccc(Cl)c(Cl)c1)C1CCNCC1 | – | 2.5 | -7.6 | -5.9
O=C(COc1cc(Cl)cc(Cl)c1)N(c1ccc(Cl)c(Cl)c1)C1CCNCC1 | – | 3.2 | -7.5 | -7

Only a part of the results on these compounds is given; other tests are left out.
